Results as given in ChEMBL document CHEMBL5365417, “The development of diphenyleneiodonium analogs as GPR3 agonists” (Bioorg Med Chem Lett, 2023).

Amino acid sequences for entries named in this document (tags omitted). A change or cut given only in a name is not applied to a line headed by its entry.
UniProt P46089: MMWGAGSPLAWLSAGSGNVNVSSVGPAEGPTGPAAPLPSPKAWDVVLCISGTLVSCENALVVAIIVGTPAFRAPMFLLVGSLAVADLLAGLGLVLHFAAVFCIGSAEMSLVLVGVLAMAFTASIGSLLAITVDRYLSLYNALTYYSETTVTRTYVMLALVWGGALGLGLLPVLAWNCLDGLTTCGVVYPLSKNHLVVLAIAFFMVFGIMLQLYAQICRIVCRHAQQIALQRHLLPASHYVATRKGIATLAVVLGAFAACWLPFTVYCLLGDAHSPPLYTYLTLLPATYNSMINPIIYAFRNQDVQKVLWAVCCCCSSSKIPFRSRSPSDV

Molecular target: G-protein coupled receptor 3 (Homo sapiens, UniProt P46089)
Experiment: Agonist activity at human GPR3 expressed in HEK293 cells assessed as increase in cAMP accumulation incubated for 30 mins by HTRF assay
Format: functional, cell-based

c1ccc2c(c1)[I+]c1ccccc1-2
EC50: 3.86 µM

c1ccc2c(c1)[I+]c1ccccc1-2 [DIPHENYLENEIODONIUM CHLORIDE]
EC50: 5.17 µM
